Apparent affinities of Ab-14 variants for a coronavirus HR2 peptide

Target peptide (SARS-CoV-2 spike, HR2 region): PDVDLGDISGINAS

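The starting antibody came from a phage panning campaign against this peptide. This is the validation round: designs drawn from the data on random variants, tested in the same kind of assay. Their group label is 14H_En_Gibbs (En: ensemble of fine-tuned language models; Gibbs: Gibbs sampling). AlphaSeq pools MATa yeast showing the antibodies with MATalpha yeast showing the peptide. Mating (16 h, 30 °C) was followed by selection of diploids and sequencing of their barcodes. Each replicate has its own calibration line, from reference interactions of the BCL2 family. Mating was done six times.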

Parent: Ab-14, a human scFv built as VH, a (GGGGS)3 linker, VL. Only the CDRs of the heavy chain vary.
VH: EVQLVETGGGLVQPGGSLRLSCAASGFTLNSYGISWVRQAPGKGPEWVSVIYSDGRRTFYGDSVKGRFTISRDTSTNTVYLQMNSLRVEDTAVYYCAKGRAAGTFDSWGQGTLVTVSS
VL: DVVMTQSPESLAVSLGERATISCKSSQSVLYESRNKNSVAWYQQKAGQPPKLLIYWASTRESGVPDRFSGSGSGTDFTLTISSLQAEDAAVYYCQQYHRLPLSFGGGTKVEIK

Variants are written as CDR1, CDR2 and CDR3 of the heavy chain (limits as in the source). Parent: GFTLNSYGIS, VIYSDGRRTFYGDSVK, GRAAGTFDS. Scale: log10 of Kd in nM, estimated from mating counts; low values are strong binders. Where no diploid with the target was found in that replicate, the entry reads "nd": below detection, most likely a poor binder, though not proof of it. A sequence measured in both rounds can read differently, since the two assays cover different ranges. Empty control strains, which show no peptide, gave a signal in 1% of pairings with all heavy chain designs; the median was 2.08 and 95% of these signals were weaker than 0.84. No background was subtracted. Also given: how often the same scFv was detected with the empty control strains. The authors' rule: three or more of the six replicates give a measured affinity, fewer mean a poor binder.

With GFNLDEYGIS, VIYADGIREHYVDDVK, GKHGGGKLD the result was nd, nd, nd, nd, nd, nd (controls 2 of 18).
With GFGLDEYGIS, VIYADGMRAQYATSVK, GYEAGTFST the result was nd, nd, nd, nd, nd, nd (controls 0 of 18).
With GFDLDQYGIS, VIYADGKRVAYTDDVK, GVNGGMALV the result was nd, nd, nd, nd, nd, nd (controls 2 of 18).
With GFNFDEYGIS, VIYADGKRKAYSDSVK, GLSSGTMEV the result was -0.30, 0.03, -0.27, -0.11, -0.05, -0.35 (controls 0 of 18).
With GFDIEDYGIS, VIYADGKRSAYSNSVK, GLMAGTMGY the result was nd, 1.73, nd, nd, nd, 1.30 (controls 0 of 18).
With GFNLNEYGIS, VIYADGIRKAYLNTVK, GIHSGGTWV the result was nd, nd, nd, nd, nd, nd (controls 0 of 18).
With GMDLSEYGIS, VIYADGMRTYASDSVK, GDHGGNLLY the result was nd, nd, nd, nd, 2.36, nd (controls 0 of 18).
With GFSIDEYGIS, VIYADGNRSAYIDAVK, GNWGSDFLE the result was nd, nd, nd, nd, nd, nd (controls 0 of 18).
With GFDLKEYGIS, VIYADGMRQVYINSFK, GDSAGIINF the result was nd, nd, nd, nd, nd, nd (controls 0 of 18).
With GFQLNEYGIS, VIYADGIRREYASKVK, GGENASFDL the result was nd, nd, nd, nd, nd, nd (controls 0 of 18).
With GFELDEYGIS, VIYADGARTAYVDNVK, GDAGGDFHV the result was nd, nd, nd, nd, 2.63, nd (controls 0 of 18).
With GFEIQEFGIS, VIYADGERTNYSENVK, GTLAGTFTT the result was 1.52, nd, 2.16, 1.68, nd, 4.02 (controls 0 of 18).
With GFDLEEYGIS, VIYADGKRTAYKNTVK, GSFMIDFKV the result was nd, nd, nd, nd, nd, nd (controls 0 of 18).
With GFSLDEYGIS, VIYADGQRKFYTEDVK, GDYNNKKGT the result was nd, nd, 1.70, nd, nd, nd (controls 0 of 18).
With GFGIGEYGIS, VIYADGRRTFYKDDVK, GNGIVAGVD the result was nd, nd, nd, nd, nd, nd (controls 0 of 18).
With GYDIEEYGIS, VIYADGKKNAFANSFK, GKWAGTFDD the result was 0.81, nd, 1.38, nd, nd, nd (controls 1 of 18).
With GQDLQEFGVS, VIYADGSRTAYADSFK, GQSAGNIVQ the result was nd, nd, nd, nd, nd, nd (controls 0 of 18).
With GFDVDEQGIS, VIYADGRRSQYANSVK, GANGGMFFQ the result was nd, nd, nd, nd, nd, nd (controls 0 of 18).
With GYDIQDYGIS, VIYADGVRTAYHDSVK, GQMAGFFIT the result was nd, nd, nd, nd, nd, nd (controls 1 of 18).
With GFEIQDYGIS, VIYADGLRTAYSDKFK, GIIAGTFNV the result was 0.96, -0.17, -0.46, 0.47, -0.63, 0.00 (controls 0 of 18).
With GFQLDEYGIS, VIYADGMRASYINSAK, GNYGIVFTV the result was nd, nd, nd, nd, nd, nd (controls 1 of 18).
With GKGLDEYGVS, VIYADGKRKSYVDDVK, GGIAGQFLV the result was nd, nd, nd, nd, nd, nd (controls 1 of 18).
With GKDLDEYGIS, VIYADGTRTAAANTVK, GEIAGTLNV the result was 0.20, 0.14, 1.08, 0.25, -0.19, 0.06 (controls 1 of 18).
With GKDIEEYGVS, VIYADGKRNAYANKVK, GKNAGSFVD the result was nd, nd, nd, nd, nd, nd (controls 0 of 18).
With GFDIEDYGIS, VIYADGVRAMYKENFK, GQIAGTYLI the result was nd, nd, nd, nd, nd, nd (controls 0 of 18).
With GFEIDEYGIS, VIYADGLRYHYANSVK, GEMAGTFME the result was nd, nd, nd, nd, nd, nd (controls 0 of 18).
With FFKLEDYGIS, VIYADGKRKAYEQNVK, GQIAGTFDV the result was 1.60, 1.62, nd, 1.67, nd, 2.01 (controls 0 of 18).
With GFDIQEYGIS, VIYADGERVAYTNSVK, GTQSGSNIN the result was nd, nd, nd, nd, 1.45, nd (controls 0 of 18).
With GFQLNEYGIS, VIYADGIRREYADKVK, GGINASFGV the result was nd, nd, nd, nd, nd, nd (controls 1 of 18).
With GFDLEEYGIS, VIYADGRRVAYADRVK, GIDVYGKVM the result was nd, nd, nd, nd, nd, nd (controls 0 of 18).
With GFDIDEYGVS, VIYADGFRKAYAESVK, GLQQFGFTV the result was nd, nd, nd, nd, nd, nd (controls 1 of 18).
With GYSLDDYGIS, VIYADGKRKSYAEDVK, GNVGGSFMN the result was nd, nd, nd, nd, nd, nd (controls 0 of 18).
With GFEIQDYGIS, VIYADGLRTAYSDKFK, GIIAGTINV the result was 1.57, 0.72, 1.08, 1.55, 0.84, 1.24 (controls 0 of 18).
With GFNLNEYGIS, VIYADGYRRAYANSVK, GYNMSLMVT the result was nd, nd, nd, nd, nd, nd (controls 0 of 18).
With EFDLQEYGIS, VIYADGKRVAYKDNVK, GNGGGVFIA the result was nd, nd, nd, nd, nd, nd (controls 0 of 18).
With GADIEEYGIS, VIYADGVRKYYVNSFK, GEMAGTFTL the result was nd, nd, nd, nd, nd, nd (controls 0 of 18).
With GFDLNEYGIS, VIYADGHRSFYIDTVK, GQQAGIFNV the result was 1.11, nd, 2.86, 2.26, 1.68, 1.37 (controls 1 of 18).
With GFKLEEYGIS, VIYADGQRVAYQDKVK, GQHAGMFDQ the result was 1.53, 2.23, 2.48, 2.19, 1.83, 1.43 (controls 0 of 18).
With GFDVEKYGIS, VIYADGYRSAYASNVK, GGEAGNFHV the result was nd, nd, nd, nd, nd, nd (controls 0 of 18).
With GFELSEYGIS, VIYADGIRTNYSQNVK, GTLAGTFTQ the result was 1.01, nd, 2.13, 1.35, 1.81, 1.91 (controls 0 of 18).
With GFSLNEYGIS, VIYADGKRRHYADSVK, GLISGFFDI the result was nd, nd, nd, nd, nd, nd (controls 0 of 18).
With GFDLTEYGIS, VIYADGRRTAYQDSVK, GLNEGMLVV the result was 0.56, 1.53, 1.89, nd, 1.71, 1.22 (controls 0 of 18).
With GFNLDEYGIS, VIYADGHRTAYTNKVK, GGFSMISVT the result was nd, nd, nd, nd, nd, nd (controls 0 of 18).
With GFDIEEFGIS, VIYADGIRTAYAQKVK, GTIAGTFVD the result was 0.73, 1.83, 0.67, 0.99, 0.56, 1.10 (controls 0 of 18).
With GFNIDEYGIS, VIYADGVRTAYADKVK, GFNQVLSVN the result was -0.20, -0.40, -0.71, -0.26, -0.43, 0.33 (controls 0 of 18).
With GKDIEEYGVS, VIYADGKRNAYANKVK, GKNAGAFVD the result was nd, nd, nd, nd, nd, nd (controls 0 of 18).
With GFNLQEYGIS, VIYADGHRTAYTNKVK, GGESMISVT the result was nd, nd, nd, nd, nd, nd (controls 0 of 18).

The opening 3 entries, copied out:

Variant GFNLDEYGIS, VIYADGIREHYVDDVK, GKHGGGKLD gave nd, nd, nd, nd, nd, nd (controls 2 of 18).
Variant GFGLDEYGIS, VIYADGMRAQYATSVK, GYEAGTFST gave nd, nd, nd, nd, nd, nd (controls 0 of 18).
Variant GFDLDQYGIS, VIYADGKRVAYTDDVK, GVNGGMALV gave nd, nd, nd, nd, nd, nd (controls 2 of 18).

Source: Li et al. 2023 (doi:10.1038/s41467-023-39022-2), MIT Lincoln Laboratory and A-Alpha Bio; data file from the FLAb repository.